Data on one substance can be found in PMC10917784.

Chains of the proteins cited; added tags and fusions are not shown. Residues count along the entry.
UniProt P08637, 17-208: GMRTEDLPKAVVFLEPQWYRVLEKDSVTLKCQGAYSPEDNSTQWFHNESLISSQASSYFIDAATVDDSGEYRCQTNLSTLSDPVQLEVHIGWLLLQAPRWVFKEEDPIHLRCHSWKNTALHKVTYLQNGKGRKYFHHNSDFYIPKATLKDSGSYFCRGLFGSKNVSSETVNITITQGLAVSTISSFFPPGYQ

What is called Kd is a measure of binding affinity in units of concentration. A low value points to higher affinity.

Where “and” joins values, the source holds several entries; their conditions need not be identical. Identical values can stand only once.

The assay addresses trastuzumab. Description: SPR; antibody constructs captured on a Protein L Series S CM5 chip, Fc receptors flowed over; Biacore 8K+, 25 °C, neutral pH; 1:1 binding model (FcγRI and FcγRIIIa); three replicates. (Surface plasmon resonance follows binding to a sensor surface in real time, without labels.)

Regarding “his-tagged human FcγRIIIa ECD (from UniProt P08637 17-208) (receptor)”, the Kd was 146 nM and 142 nM and 144 nM.
